Earlier results, collected in article PMC5495814, “The impact of the butterfly effect on human parainfluenza virus haemagglutinin-neuraminidase inhibitor design” (Scientific Reports, 2017).

The chains behind the UniProt entries cited, without tags or fusion partners. Where a name states a change or a piece, a line headed by the entry shows the natural chain unless it says otherwise.
UniProt P08492: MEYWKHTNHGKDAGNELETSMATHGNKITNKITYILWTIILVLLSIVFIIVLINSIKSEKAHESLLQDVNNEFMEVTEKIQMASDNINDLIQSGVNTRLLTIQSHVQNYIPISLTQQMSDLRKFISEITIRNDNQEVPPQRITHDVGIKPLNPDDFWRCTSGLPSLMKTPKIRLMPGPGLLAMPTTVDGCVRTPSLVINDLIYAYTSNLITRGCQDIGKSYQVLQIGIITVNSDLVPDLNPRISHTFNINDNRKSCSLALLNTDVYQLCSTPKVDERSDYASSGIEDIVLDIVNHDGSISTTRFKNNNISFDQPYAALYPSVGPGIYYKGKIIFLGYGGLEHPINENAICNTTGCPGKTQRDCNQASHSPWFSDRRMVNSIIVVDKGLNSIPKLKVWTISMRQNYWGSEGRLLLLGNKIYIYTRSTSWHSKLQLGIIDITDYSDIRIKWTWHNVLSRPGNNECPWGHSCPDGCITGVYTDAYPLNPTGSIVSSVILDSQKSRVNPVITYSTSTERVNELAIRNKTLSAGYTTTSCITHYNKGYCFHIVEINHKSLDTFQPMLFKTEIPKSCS

Biological target: hPIV-3 HN haemagglutinin function (Human parainfluenza 3 virus, UniProt P08492)
Conditions: read-out: HI IC50; recently reported 2,3-difluoro-N-acylneuraminic acid; cited from earlier work

2,3-difluoro-N-acylneuraminic acid
IC50: 1000 µM
